By UniProt entry, the sequences of proteins in these tests, tags left out.
UniProt P06493, whole entry, species assumed: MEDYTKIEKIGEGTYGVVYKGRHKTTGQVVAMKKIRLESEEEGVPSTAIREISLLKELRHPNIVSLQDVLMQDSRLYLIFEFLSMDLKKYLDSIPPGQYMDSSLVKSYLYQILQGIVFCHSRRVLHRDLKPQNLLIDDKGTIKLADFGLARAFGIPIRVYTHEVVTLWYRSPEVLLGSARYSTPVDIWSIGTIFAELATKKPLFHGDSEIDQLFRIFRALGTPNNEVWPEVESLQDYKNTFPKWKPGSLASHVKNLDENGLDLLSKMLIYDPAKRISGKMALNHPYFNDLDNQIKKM

According to patent publication EP1070068B2, “GRANULATIMIDE DERIVATIVES FOR USE IN CANCER TREATMENT” (THE UNIVERSITY OF BRITISH COLUMBIA, priority 1998, dated 1999):

Biological target: CDK1 (Homo sapiens, UniProt P06493)
Experiment: Protein kinase inhibition assay (γ-32P ATP)
Format: biochemical
Settings: room temperature, 15 minutes
Method: 100% DMSO was used as a negative control.
Kinase reactions are performed at room temperature. The reaction mixture contains diluted test compound, the protein kinase, substrate and γ-^32P ATP. The mixture is incubated for 15 minutes, and the reaction mix spotted, and counted.

## O=C1NC(=O)c2c1c1c3ccccc3[nH]c1n1cncc21 [Isogranulatimide]
  IC50: 10 µM
